Experimental data from ChEMBL document CHEMBL5226286, “The application of isatin-based multicomponent-reactions in the quest for new bioactive and druglike molecules” (Eur J Med Chem, 2021).

Tests used:
Proteus mirabilis = details: PTCC 1776
[1] = system: Staphylococcus epidermidis; details: PTCC 1435

Measured: MIC

GENTAMICIN
0.5 µg/mL: Proteus mirabilis | [1] | Staphylococcus aureus | Escherichia coli
